Source: US11624068B2, “Compositions and methods for improving immune system function” (Tufts Medical Center, Inc., priority 2016, dated 2023)

Tested on: PD1, Lag3 and Tim3
Test: Flow cytometry of exhaustion markers in repeatedly stimulated T cells
Format: cell-based, human
Details: 330 IU/ml exogenously supplemented IL2; FIG. 11
From the text: The following antibodies were used for cell staining: PE-conjugated anti-human CD279 (PD-1) (cat. 12-2799), CD223 (LAG-3) (cat. 12-2239), Tim3 (cat. 12-3109), and CD3-PECyanine7 (cat. 25003182), all of which were purchased from eBioscience, and FITC-conjugated anti-human CD8 (Invitrogen) and CD4 (BD Biosciences, cat. 340133). Pacific Blue-conjugated PD1 (cat. 329920), PE-conjugated PD-L1 (cat. 329705) and purified PD-L1 (cat. 329702) was purchased from BioLegend. In addition, PE-conjugated (cat. 555783, Pharmingen) was used as an isotype control. T cell apoptosis was detected through flow cytometric analysis using the FITC Annexin V apoptosis detection kit I (BD Pharmingen, cat. 556547) in conjunction with the vital dye, propidium iodide (BD Pharmingen, cat. 51-66211E). […]
Human T cell isolation and culture in vitro. […] 48 hours after the first stimulation, cells were counted and washed, and beads were removed using a magnet. […]

For “IL2: IL2 included in the growth medium (Chiron)”, which exhaustion marker progression is on record?
The exhaustion marker progression was “does not block”.
